Assay results from patent US5380714A (dated 1995).

The chains behind the UniProt entries cited, without tags or fusion partners.
UniProt P47745, whole entry: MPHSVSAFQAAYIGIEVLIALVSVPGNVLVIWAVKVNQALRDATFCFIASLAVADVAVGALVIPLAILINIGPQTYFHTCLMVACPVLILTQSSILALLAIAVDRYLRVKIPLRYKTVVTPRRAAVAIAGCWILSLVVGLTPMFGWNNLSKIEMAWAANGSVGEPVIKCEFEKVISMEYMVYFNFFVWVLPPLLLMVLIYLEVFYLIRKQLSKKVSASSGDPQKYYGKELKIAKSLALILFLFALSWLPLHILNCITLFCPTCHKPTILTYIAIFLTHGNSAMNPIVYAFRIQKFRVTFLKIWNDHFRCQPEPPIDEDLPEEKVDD

Biological target: adenosine receptor known as A1 (Cavia porcellus, UniProt P47745)

## Cn1c(=O)c2[nH]cnc2n(C)c1=O [1,3-dimethylxanthine]
  Kb: ~10 µM
